{"source": "patent US7115267", "key": {"[1]": {"biological_target": "p97-ubiquitin fusion protein (UniProt P0CG47)"}, "[2]": {"biological_target": "p13 ubiquitin fusion (peptide 43-55 expressed as ubiquitin fusion) (UniProt P0CG47)"}, "[3]": {"biological_target": "p15 ubiquitin fusion (peptide c43-55 expressed as ubiquitin fusion) (UniProt P0CG47)"}}, "data": [{"substance": "UCH-L3 ubiquinase enzyme", "values": [{"measurement": "in vitro enzymatic cleavage of the ubiquitin fusion", "setting": "[1]", "result": "enzymatically digested by UCH-L3 as above, resulting in a non-ubiquinated final product"}, {"measurement": "in vitro enzymatic cleavage of the ubiquitin fusion", "setting": "[2]", "result": "enzymatically digested by UCH-L3 as above, resulting in a non-ubiquinated final product"}, {"measurement": "in vitro enzymatic cleavage of the ubiquitin fusion", "setting": "[3]", "result": "enzymatically digested by UCH-L3 as above, resulting in a non-ubiquinated final product"}]}]}
